Laboratory results as given in US20050131028A1, “Methods and compositions for the extended duration treatment of pain, inflammation and inflammation-related disorders” (Pharmacia Corporation, priority 2003, published 2005).
Several values for one entry are separate records, joined by “and”; a condition that tells them apart may be missing. Equal values may be shown once.

The chains behind the UniProt entries cited, without tags or fusion partners. Residues count along the entry.
UniProt P23219, 24-599: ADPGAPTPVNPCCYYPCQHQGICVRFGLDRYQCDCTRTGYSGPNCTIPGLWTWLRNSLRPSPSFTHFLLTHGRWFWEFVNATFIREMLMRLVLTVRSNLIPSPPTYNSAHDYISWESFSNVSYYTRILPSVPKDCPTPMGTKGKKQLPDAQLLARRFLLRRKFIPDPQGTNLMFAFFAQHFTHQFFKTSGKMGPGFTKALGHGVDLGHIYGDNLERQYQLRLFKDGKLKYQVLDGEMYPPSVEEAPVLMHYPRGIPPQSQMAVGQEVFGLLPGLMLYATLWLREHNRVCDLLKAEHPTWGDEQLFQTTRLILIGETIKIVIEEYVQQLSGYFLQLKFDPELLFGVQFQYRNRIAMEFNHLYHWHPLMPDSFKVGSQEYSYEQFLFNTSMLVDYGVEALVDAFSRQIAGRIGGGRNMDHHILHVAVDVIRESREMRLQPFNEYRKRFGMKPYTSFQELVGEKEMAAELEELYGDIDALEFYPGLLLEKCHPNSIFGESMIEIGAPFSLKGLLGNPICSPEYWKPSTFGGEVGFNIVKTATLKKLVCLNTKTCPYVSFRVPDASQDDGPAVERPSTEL

Key:
in vivo [1] = conditions: rat, po, 2 mg/kg
in vivo [2] = conditions: beagle, dog, po, 2 mg/kg
in vivo [3] = conditions: beagle, dog, po, 4 mg/kg
hCOX-1 = hCOX-1 (Homo sapiens, UniProt P23219); assay: hCOX-1 enzyme inhibition (IC50); conditions: hCOX-1 IC50, repeated experimental results listed separately

IC50 (hCOX-1)	SMILES	half-life (in vivo [1]) [min]	half-life (in vivo [2]) [min]	half-life (in vivo [3]) [min]
	NS(=O)(=O)c1ccc(-n2nc(C(F)(F)F)cc2-c2ccccc2)cc1	432	1440	360 to 540
300 µM and > 500 µM	COc1c(Cl)cc(-c2cc(C(F)(F)F)nn2-c2ccc(S(N)(=O)=O)cc2)cc1Cl [4-[5-(3,5-dichloro-4-methoxyphenyl)-3-(trifluoromethyl)-1H-pyrazol-1-yl]benzenesulfonamide]			
